Results taken from ChEMBL document CHEMBL1141574, “A comparison of chloroambucil- and xylene-containing polyamines leads to improved ligands for accessing the polyamine transport system” (J Med Chem, 2008).
pIC50, pKi: −log10 of the molar value.

Columns and labels:
[1] = Ratio of IC50 for PAT deficient CHO-MG cells to IC50 for PAT active CHO cells; assay type: cell-based, Cricetulus griseus; conditions: chinese hamster
Method in brief: (§1)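 CHO and CHO-MG grown in RPMI with 10% FCS, glutamine, penicillin/streptomycin and 2 mM aminoguanidine; CHO-MG medium also has L-proline (2 µg/mL); 37 °C, 5% CO2. Cells plated at 1 × 10⁴ cells/mL and drug added after overnight incubation. After 48 h exposure, growth read as MTT formazan absorbance at 540 nm. IC50 is the concentration giving 50% reduction in relative growth; ratio is CHO-MG IC50 over CHO IC50.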

L1210 [2] = assay: Cytotoxicity against mouse L1210 cells after 24 hrs in presence of spermidine; assay type: functional, cell-based
[3] = Inhibition of [3H]spermidine uptake at PAT in mouse L1210 cells; assay type: cell-based
CHO = assay: Cytotoxicity against PAT active CHO cells after 48 hrs; assay type: cell-based, Cricetulus griseus; method in brief: as §1
L1210 [4] = assay: Cytotoxicity against mouse L1210 cells after 48 hrs; assay type: functional, cell-based
Method in brief: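 L1210 cells in early to mid log phase, viability checked by trypan blue, grown in RPMI with 10% FCS, glutamine, antibiotics and 2 mM aminoguanidine at 37 °C, 5% CO2. Seeded at 6 × 10⁴ cells/mL with drug added at seeding. After 48 h exposure, growth read as MTT formazan at 540 nm. IC50 is the concentration reducing relative growth by 50%.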

CHO-MG = assay: Cytotoxicity against PAT deficient CHO-MG cells after 48 hrs; assay type: cell-based, Cricetulus griseus; method in brief: as §1

Compound | Ratio IC50 [1] | pIC50 (L1210 [2]) | pKi [3] | pIC50 (CHO) | pIC50 (L1210 [4]) | pIC50 (CHO-MG)
Cl.Cl.Cl.Cl.NCCCCNCc1ccc(N(CCCl)CCCl)cc1 | 0.6 |  |  |  |  | 
NCCCCNCc1ccc(N(CCCl)CCCl)cc1 |  | 5.59 | 4.12 | 4.55 | 5.66 | 4.77
